Experiment: Light absorption maxima and molar extinction coefficients
Format: physicochemical
Conditions: in water (W)
Experimental: Compounds according to the invention were assessed and characterised by their light absorption maxima, and their molar extinction coefficients according to conventional test procedures. Most of the compound were tested for their biological activity according to conventional test procedures in the art. The PC50 represents phototoxic concentration 50%. which is the concentration of compound when exposed to a light dose as described herein, causes a 50% reduction in cancer cell growth vs an untreated control population. The phototoxicity index. PI, is the ratio of the PC50 to the cytotoxic concentration 50%. where the growth is reduced by 50% without a light dose being given.

NCCC(=O)[O-].NCCC(=O)[O-].[K+].[K+].c1ccc2c(c1)C1=NC3=NC(=Nc4c5ccccc5c5[n]4[Ru][n]4c(c6ccccc6c4=N5)=NC2=N1)c1ccccc13 [RuPc(β-ALA)2]
λmax Q: 635

Fc1c(F)c(F)c2c(c1F)C1=NC2=Nc2c3c(F)c(F)c(F)c(F)c3c3[n]2[Ru][n]2c(c4c(F)c(F)c(F)c(F)c4c2=NC2=NC(=N3)c3c(F)c(F)c(F)c(F)c32)=N1.O=C(O)c1cccnc1.O=C(O)c1cccnc1 [RuF16 Pc(Nic)2]
λmax Q: 635

From US5556849A, “Ruthenium containing phthalocyanin photosensitizers” (priority 1991, dated 1996)
